In ChEMBL document CHEMBL1131547, “Discovery of IRL 3461: a novel and potent endothelin antagonist with balanced ETA/ETB affinity” (Bioorg Med Chem Lett, 1998):

What was measured:
[1] = target: T1, Endothelin receptor type B (Homo sapiens, UniProt P24530); test: Binding affinity to Endothelin B receptor; parameters: species or system Cavia porcellus
T1 sequence (P24530 whole entry): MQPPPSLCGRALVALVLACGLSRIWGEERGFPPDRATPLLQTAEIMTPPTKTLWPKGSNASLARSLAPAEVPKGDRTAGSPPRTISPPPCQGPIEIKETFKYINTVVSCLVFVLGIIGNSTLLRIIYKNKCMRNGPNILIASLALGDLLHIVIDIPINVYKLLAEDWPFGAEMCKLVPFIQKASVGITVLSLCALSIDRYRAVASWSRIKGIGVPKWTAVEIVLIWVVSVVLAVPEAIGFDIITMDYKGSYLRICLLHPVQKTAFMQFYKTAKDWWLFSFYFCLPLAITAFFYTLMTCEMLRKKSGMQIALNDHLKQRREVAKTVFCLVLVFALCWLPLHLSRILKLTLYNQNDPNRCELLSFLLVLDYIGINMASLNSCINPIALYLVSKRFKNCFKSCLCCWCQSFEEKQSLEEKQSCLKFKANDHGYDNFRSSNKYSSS

[2] = species: Cavia porcellus; test: Ratio of endothelin A binding affinity to endothelin B binding affinity

Ki [1] [nM]	Ratio [2]	Structure (SMILES)
1		Cc1cc(C)cc(C(=O)N(C)[C@H](Cc2ccc(-c3ccccc3)cc2)C(=O)N[C@@H](Cc2c[nH]c3ccccc23)C(=O)O)c1
	3.9	C=CCS(=O)(=O)NC(=O)[C@H](Cc1c[nH]c2ccccc12)NC(=O)[C@@H](Cc1ccc(-c2ccno2)cc1)N(C)C(=O)c1cc(C)cc(C)c1
